The chains behind the UniProt entries cited, without tags or fusion partners.
UniProt P10275, whole entry T878A: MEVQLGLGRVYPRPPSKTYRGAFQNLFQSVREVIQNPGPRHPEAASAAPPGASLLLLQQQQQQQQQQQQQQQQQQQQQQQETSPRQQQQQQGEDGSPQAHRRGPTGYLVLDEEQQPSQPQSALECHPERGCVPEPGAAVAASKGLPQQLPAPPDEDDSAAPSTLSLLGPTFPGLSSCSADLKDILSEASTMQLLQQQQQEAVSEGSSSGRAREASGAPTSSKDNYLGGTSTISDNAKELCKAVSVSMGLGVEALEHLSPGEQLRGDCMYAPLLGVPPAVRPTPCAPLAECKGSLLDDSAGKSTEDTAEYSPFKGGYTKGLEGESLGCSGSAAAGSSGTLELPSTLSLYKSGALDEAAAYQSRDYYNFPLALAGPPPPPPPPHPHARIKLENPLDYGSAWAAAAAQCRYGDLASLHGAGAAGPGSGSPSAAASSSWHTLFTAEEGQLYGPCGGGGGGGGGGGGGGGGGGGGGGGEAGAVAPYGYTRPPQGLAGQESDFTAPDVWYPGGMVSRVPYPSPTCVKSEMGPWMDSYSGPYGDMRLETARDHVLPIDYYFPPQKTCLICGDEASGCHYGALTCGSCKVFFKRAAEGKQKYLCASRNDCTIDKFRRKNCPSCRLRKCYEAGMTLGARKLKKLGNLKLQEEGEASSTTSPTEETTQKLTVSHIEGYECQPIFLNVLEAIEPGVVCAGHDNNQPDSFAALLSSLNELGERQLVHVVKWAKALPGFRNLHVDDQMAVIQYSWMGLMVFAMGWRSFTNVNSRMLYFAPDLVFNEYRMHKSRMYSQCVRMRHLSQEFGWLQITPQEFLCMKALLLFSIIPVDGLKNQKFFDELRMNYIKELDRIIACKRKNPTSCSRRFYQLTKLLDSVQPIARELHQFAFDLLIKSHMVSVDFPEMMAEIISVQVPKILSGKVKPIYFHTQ

In patent US9868705B2, “Tetra-aryl cyclobutane inhibitors of androgen receptor action for the treatment of hormone refractory cancer” (The Board of Trustees of the University of Illinois, priority 2013, dated 2018):

Target: T877A (LNCaP) AR (Homo sapiens, UniProt P10275, T878A)
Experiment: MMTV-luciferase transcription assay in CV-1 cells, T877A AR
Format: cell-based
Conditions: MMTV transcription assay in CV-1 cells, compared with 1

Compound: COc1nc(C)cc(C2C(c3ccccc3)C(c3cc(C)nc(OC)n3)C2c2ccccc2)n1 (single isomer, unassigned)
- AR antagonism, potency in words (structure-activity discussion): comparable potency to 1
